In patent US20040049009A1, “Methods for improving the antagonistic/agonistic properties of peptidic antagonists/agonists of the corticotropin-releasing factor receptor (crfr)” (priority 2000, published 2004):

What was measured:
[1] = target: rat CRF receptor, type 1 (rat) (UniProt P35353); assay: SPA competition with 0.05 nM [125I-Tyr0]h/rCRF, HEK-293 membranes; 95% CI (330-400)
[2] = target: mouse CRF receptor, type 2β (mouse) (UniProt Q60748); assay: SPA competition with 0.05 nM [125I-Tyr0]Svg, HEK-293 membranes; 95% CI (3.3-5.3)
[3] = target: rat CRF receptor, type 1 (rat) (UniProt P35353); assay: SPA competition with 0.05 nM [125I-Tyr0]h/rCRF, HEK-293 membranes; 95% CI (52-69)

## anti-sauvagine-30 (peptide)
[1]
  IC50: 370 nM

## α-helical CRF^9-41 (peptide)
[2]
  IC50: 4.3 nM
[3]
  IC50: 61 nM
